Molecules are shown by their SMILES.

By UniProt entry, the sequences of proteins in these tests, tags left out. Where a name states a change or a piece, a line headed by the entry shows the natural chain unless it says otherwise.
UniProt P12931, whole entry, looked up: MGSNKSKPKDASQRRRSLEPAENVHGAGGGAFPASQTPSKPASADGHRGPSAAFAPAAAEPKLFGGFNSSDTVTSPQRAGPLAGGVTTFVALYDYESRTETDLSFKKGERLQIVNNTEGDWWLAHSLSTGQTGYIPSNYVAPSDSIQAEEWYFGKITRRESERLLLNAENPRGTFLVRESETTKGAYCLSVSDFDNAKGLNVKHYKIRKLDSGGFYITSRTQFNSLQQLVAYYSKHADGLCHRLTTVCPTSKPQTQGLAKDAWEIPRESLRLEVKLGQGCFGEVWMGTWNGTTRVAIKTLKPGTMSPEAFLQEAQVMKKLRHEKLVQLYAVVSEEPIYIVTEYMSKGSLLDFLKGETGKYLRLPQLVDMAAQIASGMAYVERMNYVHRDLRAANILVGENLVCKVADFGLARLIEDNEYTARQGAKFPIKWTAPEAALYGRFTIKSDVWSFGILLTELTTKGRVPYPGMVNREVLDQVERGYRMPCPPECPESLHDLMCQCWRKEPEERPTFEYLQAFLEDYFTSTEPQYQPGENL
UniProt P49840: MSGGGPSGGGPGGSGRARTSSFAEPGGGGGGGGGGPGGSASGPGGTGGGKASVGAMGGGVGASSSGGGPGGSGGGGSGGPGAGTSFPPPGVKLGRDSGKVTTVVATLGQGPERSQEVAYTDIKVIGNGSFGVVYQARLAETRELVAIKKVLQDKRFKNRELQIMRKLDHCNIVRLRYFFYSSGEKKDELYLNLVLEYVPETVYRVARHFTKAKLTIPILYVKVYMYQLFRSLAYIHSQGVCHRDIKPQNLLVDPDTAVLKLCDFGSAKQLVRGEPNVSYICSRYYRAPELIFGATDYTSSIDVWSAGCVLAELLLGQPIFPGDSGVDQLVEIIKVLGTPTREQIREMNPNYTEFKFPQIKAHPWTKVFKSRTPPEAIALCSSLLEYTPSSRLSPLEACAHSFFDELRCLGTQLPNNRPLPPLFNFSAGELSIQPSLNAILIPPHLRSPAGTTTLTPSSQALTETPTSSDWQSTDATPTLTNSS

The target of experiment [1] is c-Src (Homo sapiens (Human), UniProt P12931). In words: c-Src enzyme inhibition (Z-LYTE FRET). Format: biochemical. As for the experimental part:
(§1) The enzyme inhibitory activities of compounds disclosed herein are determined by FRET using synthetic peptides labelled with both donor and acceptor fluorophores (Z-LYTE, Invitrogen Ltd., Paisley, UK).
(§2) The relevant enzyme (3000 ng/mL or 2000 ng/mL respectively, 2.5 μL) is incubated with the test compound (either 4 μg/mL, 0.4 μg/mL, 0.04 μg/mL, or 0.004 μg/mL, 2.5 μL each) for 2 hr at RT. The FRET peptides (8 μM, 2.5 μL), and appropriate ATP solutions (2.5 μL, 800 μM for c-Src, and 60 μM ATP for Syk) are then added to the enzymes/compound mixtures and incubated for 1 hr. Development reagent (protease, 5 μL) is added for 1 hr prior to detection in a fluorescence microplate reader (Varioskan® Flash, ThermoFisher Scientific).
(§3) In all cases, the site-specific protease cleaves non-phosphorylated peptide only and eliminates the FRET signal. Phosphorylation levels of each reaction are calculated using the ratio of coumarin emission (donor) over fluorescein emission (acceptor), for which high ratios indicate high phosphorylation and low ratios indicate low phosphorylation levels.

Experiment [2] has as its system PBMCs. As to the kind of experiment: LPS-induced TNFα/IL-8 release in PBMC cells. Format: cell-based. Particulars: Homo sapiens, read-out: IC50 Values for Inhibition of Cytokine Release PBMCs IL-8. As for the experimental part:
Peripheral blood mononuclear cells (PBMCs) from healthy subjects are separated from whole blood using a density gradient (Lymphoprep, Axis-Shield Healthcare). The PBMCs are seeded in 96 well plates and treated with compounds at the desired concentration for 2 hours before addition of 1 ng/mL LPS (Escherichia Coli O111:B4 from Sigma Aldrich) for 24 hours under normal tissue culture conditions (37° C., 5% CO2). The supernatant is harvested for determination of IL-8 and TN Fa concentrations by sandwich ELISA (Duo-set, R&D systems) and read on the fluorescence microplate reader (Varioskan® Flash, ThermoFisher Scientific). The concentration at 50% inhibition (IC50) of IL-8 and TNFα production is calculated from the dose response curve.

For experiment [3], the target named is Syk (Homo sapiens (Human), UniProt P43405). In words: Syk enzyme inhibition (Z-LYTE FRET). Format: biochemical. As for the experimental part:
as §1, §2, §3

In experiment [4] the target is GSK3α (Homo sapiens (Human), UniProt P49840). As to the kind of experiment: GSK 3α enzyme inhibition (Z-LYTE FRET, Method 2). It counts as biochemical. As for the experimental part: as §1
The inhibitory activities of compounds of the invention against the GSK 3α enzyme isoform (Invitrogen), are evaluated by determining the level of activation/phosphorylation of the target peptide. The GSK3-α protein (500 ng/mL, 2.5 μL) is mixed with the test compound (2.5 μL at either 4 μg/mL, 0.4 μg/mL, 0.04 μg/mL, or 0.004 μg/mL) for 2 hr at RT. The FRET peptide (8 μM, 2.5 μL), which is a phosphorylation target for GSK3α, and ATP (40 μM, 2.5 μL) are then added to the enzyme/compound mixture and the resulting mixture incubated for 1 hr. Development reagent (protease, 5 μL) is added for 1 hr prior to detection in a fluorescence microplate reader (Varioskan® Flash, ThermoFisher Scientific).
as §3

Experiment [5] has as its system PBMCs. As to the kind of experiment: IL-2 and IFN gamma release in CD3/CD28 stimulated PBMC cells. Format: cell-based. Particulars: Homo sapiens, read-out: IC50 Values for Inhibition of Cytokine Release PBMCs IFNγ. As for the experimental part: PBMCs from healthy subjects are separated from whole blood using a density gradient (Lymphoprep, Axis-Shield Healthcare). Cells are added to a 96 well plate pre-coated with a mixture of CD3/CD38 monoclonal antibodies (0.3 μg/mL eBioscience and 3 μg/mL BD Pharmingen respectively). Compound at the desired concentration is then added to the wells and the plate left for 3 days under normal tissue culture conditions. Supernatants are harvested and IL-2 and IFN gamma release determined by Sandwich ELISA (Duo-set, R&D System). The IC50 is determined from the dose response curve.

Regarding `COCCOCCOCCOc1cc(Nc2nccc(Oc3ccc(NC(=O)Nc4cc(C(C)(C)C)nn4-c4ccc(C)cc4)c4ccccc34)n2)cc(OC)c1Cl` [Example 72, 1-(3-(tert-Butyl)-1-(p-tolyl)-1H-pyrazol-5-yl)-3-(4-((2-((4-chloro-3-methoxy-5-(2-(2-(2-methoxyethoxyl)ethoxy)ethoxy)phenyl)amino)pyrimidin-4-yl)oxy)naphthalen-1-yl)urea], the IC50 was 39 nM in experiment [1] and 3.9 nM in experiment [2].

In experiment [1], `COc1ccc(-n2nc(C(C)(C)C)cc2NC(=O)Nc2ccc(Oc3ccnc(Nc4cccc(OS(C)(=O)=O)c4)n3)c3ccccc23)cn1` [Example 3, 3-(4-((4-(3-(3-(tert-Butyl)-1-(6-methoxypyridin-3-yl)-1H-pyrazol-5-yl)ureido)naphthalen-1-yl)oxy)pyrimidin-2-yl)amino)phenyl methanesulfonate] had an IC50 of 16 nM.

`COc1cc(Nc2nccc(Oc3ccc(NC(=O)Nc4cc(C(C)(C)C)nn4-c4ccc(C)cc4)c4ccccc34)n2)cc(OCCOCCOCCN2CCOCC2)c1` [Example 58, 1-(3-(tert-Butyl)-1-(p-tolyl)-1H-pyrazol-5-yl)-3-(4-((2-((3-methoxy-5-(2-(2-(2-morpholinoethoxy)ethoxy)ethoxy)phenyl)amino)pyrimidin-4-yl)oxy)naphthalen-1-yl)urea]: the IC50 in experiment [1] is 11 nM; in experiment [3], 28 nM; in experiment [4] it was 2810 nM; in experiment [2], 1.1 nM.

On to `COc1cc(Nc2nccc(Oc3ccc(NC(=O)Nc4cc(C(C)(C)C)nn4-c4ccc(C)cc4)c4ccccc34)n2)cc(SCCO)c1` [Example 55, 1-(3-(tert-Butyl)-1-(p-tolyl)-1H-pyrazol-5-yl)-3-(4-((2-((3-((2-hydroxyethyl)thio)-5-methoxyphenyl)amino)pyrimidin-4-yl)oxy)naphthalen-1-yl)urea], for which 23 nM corresponded to half-maximal inhibition in experiment [1] (IC50).

Take `COc1cc(Nc2nccc(Oc3ccc(NC(=O)Nc4cc(C(C)(C)C)nn4-c4ccc(C)cc4)c4ccccc34)n2)cc(SCCCO)c1` [Example 48, 1-(3-(tert-Butyl)-1-(p-tolyl)-1H-pyrazol-5-yl)-3-(4-((2-((3-((3-Hydroxypropyl)thio)-5-methoxyphenyl)amino)pyrimidin-4-yl)oxy)naphthalen-1-yl)urea]: the IC50 amounted to 22 nM in experiment [1] and 2.2 nM in experiment [5].

Take `COc1ccc(-n2nc(C(C)(C)C)cc2NC(=O)Nc2ccc(Oc3ccnc(Nc4cc(OC)cc(S(=O)(=O)C5CC5)c4)n3)c3ccccc23)cc1` [Example 70, 1-(3-(tert-Butyl)-1-(4-methoxyphenyl)-1H-pyrazol-5-yl)-3-(4-((2-((3-(cyclopropylsulfonyl)-5-methoxyphenyl)amino)pyrimidin-4-yl)oxy)naphthalen-1-yl)urea]: in experiment [1], half-maximal inhibition (IC50) required 48 nM.

These data come from patent US9732063B2, “Kinase inhibitors” (RESPIVERT LIMITED, priority 2012, dated 2017).
